From US20250186608A1, “NANODIAMONDS AS DELIVERY PLATFORM FOR OXIME ANTIDOTES TO CENTRAL NERVOUS SYSTEM IN ORGANOPHOSPHATE POISONING” (published 2025)

Test system: MDCK cell membrane
Assay: MDCK assay double-well experiment: permeability across in vitro BBB model
Settings: reference compounds, concentration not given

Row | Compound | CNS (+/−) | Experimental estimation of BBB Penetration Papp ± SD
1 | O/N=C/c1cc[n+](COC[n+]2ccc(/C=N/O)cc2)cc1 | CNS− | –
2 | 7-methoxytacrine | CNS+ | 17.19 ± 3.56 ×10^−6 cm s^−1
